Measured values: patent publication US20150258192A1, “COMPOSITIONS AND METHODS FOR PREVENTING OR TREATING CHRONIC LUNG ALLOGRAFT DYSFUNCTION (CLAD) AND IDIOPATHIC PULMONARY FIBROSIS (IPF)” (priority 2014, published 2015)

Sequences of proteins named here, by UniProt entry; tags and fusion partners are left off. A change or cut given only in a name is not applied to a line headed by its entry. Residues count along the entry.
UniProt Q00526: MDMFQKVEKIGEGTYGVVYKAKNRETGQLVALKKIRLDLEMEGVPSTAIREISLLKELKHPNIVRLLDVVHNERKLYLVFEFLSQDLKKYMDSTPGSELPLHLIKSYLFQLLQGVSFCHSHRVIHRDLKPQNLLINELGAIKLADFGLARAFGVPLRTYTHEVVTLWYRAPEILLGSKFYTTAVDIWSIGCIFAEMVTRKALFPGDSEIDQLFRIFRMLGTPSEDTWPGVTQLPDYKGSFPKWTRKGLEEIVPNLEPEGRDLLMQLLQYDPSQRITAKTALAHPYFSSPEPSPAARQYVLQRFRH
UniProt P78368: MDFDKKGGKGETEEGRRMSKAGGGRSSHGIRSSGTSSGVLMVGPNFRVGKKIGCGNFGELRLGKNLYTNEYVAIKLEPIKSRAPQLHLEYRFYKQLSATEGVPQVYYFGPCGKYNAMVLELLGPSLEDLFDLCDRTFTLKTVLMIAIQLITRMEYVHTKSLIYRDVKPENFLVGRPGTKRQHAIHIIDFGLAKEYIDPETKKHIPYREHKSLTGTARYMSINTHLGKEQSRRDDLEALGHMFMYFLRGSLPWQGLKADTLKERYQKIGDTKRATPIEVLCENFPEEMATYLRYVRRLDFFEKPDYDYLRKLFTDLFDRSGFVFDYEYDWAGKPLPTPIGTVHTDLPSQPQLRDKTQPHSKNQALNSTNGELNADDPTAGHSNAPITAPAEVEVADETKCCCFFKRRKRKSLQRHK
UniProt P08631: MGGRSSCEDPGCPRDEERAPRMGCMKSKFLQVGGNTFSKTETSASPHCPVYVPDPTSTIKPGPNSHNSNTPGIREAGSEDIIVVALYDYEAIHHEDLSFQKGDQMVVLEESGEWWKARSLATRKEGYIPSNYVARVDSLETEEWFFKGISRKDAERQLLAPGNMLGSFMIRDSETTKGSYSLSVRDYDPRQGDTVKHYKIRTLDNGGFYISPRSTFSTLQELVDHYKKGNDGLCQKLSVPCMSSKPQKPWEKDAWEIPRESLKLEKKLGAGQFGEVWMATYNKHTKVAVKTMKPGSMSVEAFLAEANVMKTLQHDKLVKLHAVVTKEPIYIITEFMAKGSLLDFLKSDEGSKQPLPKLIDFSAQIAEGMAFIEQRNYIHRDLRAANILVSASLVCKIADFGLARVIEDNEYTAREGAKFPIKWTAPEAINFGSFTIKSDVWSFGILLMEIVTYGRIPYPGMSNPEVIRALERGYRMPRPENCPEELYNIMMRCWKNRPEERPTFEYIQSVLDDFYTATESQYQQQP
UniProt P53667: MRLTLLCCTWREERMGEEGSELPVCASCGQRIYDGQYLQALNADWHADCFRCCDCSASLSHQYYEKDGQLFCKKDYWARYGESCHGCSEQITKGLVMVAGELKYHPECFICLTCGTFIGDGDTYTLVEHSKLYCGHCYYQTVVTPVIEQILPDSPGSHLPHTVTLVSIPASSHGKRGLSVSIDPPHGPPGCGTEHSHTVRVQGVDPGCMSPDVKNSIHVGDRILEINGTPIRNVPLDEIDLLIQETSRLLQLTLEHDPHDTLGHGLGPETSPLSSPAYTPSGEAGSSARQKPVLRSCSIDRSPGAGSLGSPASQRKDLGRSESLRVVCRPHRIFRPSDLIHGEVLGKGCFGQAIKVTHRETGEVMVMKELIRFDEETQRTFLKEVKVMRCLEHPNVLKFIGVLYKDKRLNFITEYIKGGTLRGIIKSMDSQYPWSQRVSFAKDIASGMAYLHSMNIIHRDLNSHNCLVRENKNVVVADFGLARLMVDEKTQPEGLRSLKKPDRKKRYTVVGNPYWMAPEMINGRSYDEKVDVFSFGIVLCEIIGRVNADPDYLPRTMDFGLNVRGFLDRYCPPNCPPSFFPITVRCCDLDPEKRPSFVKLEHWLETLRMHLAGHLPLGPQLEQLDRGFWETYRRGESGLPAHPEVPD
UniProt Q9P0L2: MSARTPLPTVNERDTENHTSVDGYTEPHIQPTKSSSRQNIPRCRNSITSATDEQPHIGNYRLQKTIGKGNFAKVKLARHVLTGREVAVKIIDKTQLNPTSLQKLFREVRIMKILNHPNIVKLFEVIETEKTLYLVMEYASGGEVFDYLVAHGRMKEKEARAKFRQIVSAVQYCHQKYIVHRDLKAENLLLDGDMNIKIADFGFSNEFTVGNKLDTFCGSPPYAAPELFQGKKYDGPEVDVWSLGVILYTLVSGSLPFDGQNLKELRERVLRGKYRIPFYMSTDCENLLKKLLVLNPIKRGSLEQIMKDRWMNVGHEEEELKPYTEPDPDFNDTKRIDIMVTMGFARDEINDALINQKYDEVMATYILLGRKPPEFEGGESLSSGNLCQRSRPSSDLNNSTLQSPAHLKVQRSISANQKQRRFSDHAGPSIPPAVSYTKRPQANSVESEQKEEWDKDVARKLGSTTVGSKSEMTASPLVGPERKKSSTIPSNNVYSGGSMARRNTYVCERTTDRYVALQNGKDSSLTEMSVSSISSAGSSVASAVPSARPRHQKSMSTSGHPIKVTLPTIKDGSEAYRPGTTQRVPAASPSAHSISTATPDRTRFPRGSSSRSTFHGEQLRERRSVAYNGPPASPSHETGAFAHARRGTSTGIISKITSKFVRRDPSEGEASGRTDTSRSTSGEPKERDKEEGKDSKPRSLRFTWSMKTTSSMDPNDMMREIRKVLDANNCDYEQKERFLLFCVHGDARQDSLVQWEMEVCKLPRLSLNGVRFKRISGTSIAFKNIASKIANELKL
UniProt Q9NQU5: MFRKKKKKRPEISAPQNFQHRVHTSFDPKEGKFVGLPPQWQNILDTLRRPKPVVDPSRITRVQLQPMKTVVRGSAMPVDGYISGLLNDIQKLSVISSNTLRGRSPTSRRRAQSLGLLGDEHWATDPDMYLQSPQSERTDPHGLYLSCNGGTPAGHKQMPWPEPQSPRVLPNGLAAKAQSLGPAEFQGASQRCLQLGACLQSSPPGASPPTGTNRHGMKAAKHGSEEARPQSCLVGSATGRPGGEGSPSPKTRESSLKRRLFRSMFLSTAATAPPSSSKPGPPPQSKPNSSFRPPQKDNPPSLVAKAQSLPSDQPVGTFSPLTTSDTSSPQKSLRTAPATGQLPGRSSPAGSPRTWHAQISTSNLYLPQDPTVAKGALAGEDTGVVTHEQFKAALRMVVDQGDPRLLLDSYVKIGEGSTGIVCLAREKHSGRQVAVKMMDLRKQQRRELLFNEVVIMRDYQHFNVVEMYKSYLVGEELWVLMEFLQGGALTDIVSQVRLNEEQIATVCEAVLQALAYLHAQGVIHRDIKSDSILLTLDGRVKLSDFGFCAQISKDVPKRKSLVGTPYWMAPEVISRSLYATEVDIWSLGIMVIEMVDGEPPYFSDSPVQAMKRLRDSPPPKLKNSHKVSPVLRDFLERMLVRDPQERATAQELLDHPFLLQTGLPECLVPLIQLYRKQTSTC
UniProt P16234, 24-1089 D842V: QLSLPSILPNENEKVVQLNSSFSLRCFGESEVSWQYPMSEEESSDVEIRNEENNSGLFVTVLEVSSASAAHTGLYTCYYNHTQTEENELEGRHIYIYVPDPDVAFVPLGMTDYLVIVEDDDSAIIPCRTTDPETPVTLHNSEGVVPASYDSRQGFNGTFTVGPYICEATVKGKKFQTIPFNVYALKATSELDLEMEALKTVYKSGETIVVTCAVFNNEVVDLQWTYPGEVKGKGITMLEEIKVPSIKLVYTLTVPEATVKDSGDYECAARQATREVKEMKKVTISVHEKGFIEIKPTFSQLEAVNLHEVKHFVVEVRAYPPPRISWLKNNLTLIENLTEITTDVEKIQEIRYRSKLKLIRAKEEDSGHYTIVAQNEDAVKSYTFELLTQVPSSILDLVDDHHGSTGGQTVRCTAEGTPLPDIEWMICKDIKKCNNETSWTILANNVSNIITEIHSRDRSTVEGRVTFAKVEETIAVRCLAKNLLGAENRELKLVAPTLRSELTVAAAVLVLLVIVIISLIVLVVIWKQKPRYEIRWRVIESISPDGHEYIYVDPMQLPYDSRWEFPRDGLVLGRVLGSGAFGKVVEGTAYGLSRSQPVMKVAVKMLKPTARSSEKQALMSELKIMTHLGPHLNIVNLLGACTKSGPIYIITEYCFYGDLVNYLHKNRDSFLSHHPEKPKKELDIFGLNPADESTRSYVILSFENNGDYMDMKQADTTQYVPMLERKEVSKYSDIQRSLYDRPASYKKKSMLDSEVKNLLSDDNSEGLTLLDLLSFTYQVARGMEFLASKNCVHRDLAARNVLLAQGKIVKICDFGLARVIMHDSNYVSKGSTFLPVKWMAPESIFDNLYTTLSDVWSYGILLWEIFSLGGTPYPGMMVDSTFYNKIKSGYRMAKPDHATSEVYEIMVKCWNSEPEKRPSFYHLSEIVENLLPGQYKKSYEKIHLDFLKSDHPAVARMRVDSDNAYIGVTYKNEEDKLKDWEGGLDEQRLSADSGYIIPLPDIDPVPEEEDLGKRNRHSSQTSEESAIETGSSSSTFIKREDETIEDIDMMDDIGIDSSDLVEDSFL
UniProt Q9H4B4: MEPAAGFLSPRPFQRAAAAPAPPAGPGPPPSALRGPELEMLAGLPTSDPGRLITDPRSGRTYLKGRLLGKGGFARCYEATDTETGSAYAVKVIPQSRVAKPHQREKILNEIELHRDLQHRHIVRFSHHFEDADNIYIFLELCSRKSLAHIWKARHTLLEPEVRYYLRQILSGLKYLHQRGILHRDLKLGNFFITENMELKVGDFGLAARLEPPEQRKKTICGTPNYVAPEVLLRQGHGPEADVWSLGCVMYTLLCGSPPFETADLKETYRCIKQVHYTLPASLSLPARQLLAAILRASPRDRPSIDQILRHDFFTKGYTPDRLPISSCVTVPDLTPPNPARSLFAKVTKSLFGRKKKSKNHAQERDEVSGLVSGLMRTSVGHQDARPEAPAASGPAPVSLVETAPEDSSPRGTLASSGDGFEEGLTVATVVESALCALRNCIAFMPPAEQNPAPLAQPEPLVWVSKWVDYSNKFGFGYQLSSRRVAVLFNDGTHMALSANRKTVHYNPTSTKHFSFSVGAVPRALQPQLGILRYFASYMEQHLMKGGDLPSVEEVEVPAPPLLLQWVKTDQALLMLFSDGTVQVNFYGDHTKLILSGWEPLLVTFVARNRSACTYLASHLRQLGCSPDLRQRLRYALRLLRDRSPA
UniProt P57059: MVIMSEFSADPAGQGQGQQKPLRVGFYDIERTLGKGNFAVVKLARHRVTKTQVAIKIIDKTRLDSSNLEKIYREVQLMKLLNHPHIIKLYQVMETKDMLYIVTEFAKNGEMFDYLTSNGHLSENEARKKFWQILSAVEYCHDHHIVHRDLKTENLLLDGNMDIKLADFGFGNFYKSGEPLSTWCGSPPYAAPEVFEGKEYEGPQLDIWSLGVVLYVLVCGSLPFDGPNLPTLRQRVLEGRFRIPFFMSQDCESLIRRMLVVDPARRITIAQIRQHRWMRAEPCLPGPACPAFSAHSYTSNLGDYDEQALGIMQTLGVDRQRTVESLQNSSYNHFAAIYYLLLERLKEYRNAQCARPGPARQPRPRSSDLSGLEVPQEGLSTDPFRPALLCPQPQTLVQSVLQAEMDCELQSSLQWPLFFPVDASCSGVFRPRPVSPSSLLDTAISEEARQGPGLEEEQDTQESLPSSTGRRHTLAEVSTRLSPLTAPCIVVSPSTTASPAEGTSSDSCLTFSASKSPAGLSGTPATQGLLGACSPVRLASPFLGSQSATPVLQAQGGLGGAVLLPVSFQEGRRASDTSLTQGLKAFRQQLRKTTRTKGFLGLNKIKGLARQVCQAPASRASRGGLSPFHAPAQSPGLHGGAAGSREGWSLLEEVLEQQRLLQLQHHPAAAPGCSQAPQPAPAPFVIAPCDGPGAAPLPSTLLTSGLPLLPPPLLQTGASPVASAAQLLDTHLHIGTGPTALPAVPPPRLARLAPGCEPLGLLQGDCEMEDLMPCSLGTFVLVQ

Columns and labels:
Assay in all cases: Kinase Profiling Assay
Format in all cases: biochemical
Details in all cases: peptide 100 μM
CDK2/cyclinE(h) = CDK2/cyclinE(h) (Homo sapiens, UniProt P24941)
Method: (§1) Every kinase activity measurement was conducted in duplicate.
(§2) Specifically, in these assays, a positively charged substrate is phosphorylated with a radiolabeled phosphate group from an ATP if the kinase is not inhibited by an inhibitor peptide. The positively charged substrate then is attracted to a negatively charged filter membrane, quantified with a scintillation counter, and compared to a 100% activity control.
(§3) In addition to determining the IC50 of the compound, the specificity of MK2 inhibitory peptides was assessed by examining activities of all 266 human kinases available for testing in the Millipore kinase profiling service (Table 1).

CDK3/cyclinE(h) = CDK3/cyclinE(h) (Homo sapiens, UniProt Q00526)
Method: as §1, §2, §3

CK1γ2(h) = CK1γ2(h) (Homo sapiens, UniProt P78368)
Method: as §1, §2, §3

CLK2(h) = CLK2(h) (Homo sapiens, UniProt P49760)
Method: as §1, §2, §3

EphA1(h) = target: T1, EphA1(h) (Homo sapiens, UniProt P21709)
T1 sequence (P21709 26-976): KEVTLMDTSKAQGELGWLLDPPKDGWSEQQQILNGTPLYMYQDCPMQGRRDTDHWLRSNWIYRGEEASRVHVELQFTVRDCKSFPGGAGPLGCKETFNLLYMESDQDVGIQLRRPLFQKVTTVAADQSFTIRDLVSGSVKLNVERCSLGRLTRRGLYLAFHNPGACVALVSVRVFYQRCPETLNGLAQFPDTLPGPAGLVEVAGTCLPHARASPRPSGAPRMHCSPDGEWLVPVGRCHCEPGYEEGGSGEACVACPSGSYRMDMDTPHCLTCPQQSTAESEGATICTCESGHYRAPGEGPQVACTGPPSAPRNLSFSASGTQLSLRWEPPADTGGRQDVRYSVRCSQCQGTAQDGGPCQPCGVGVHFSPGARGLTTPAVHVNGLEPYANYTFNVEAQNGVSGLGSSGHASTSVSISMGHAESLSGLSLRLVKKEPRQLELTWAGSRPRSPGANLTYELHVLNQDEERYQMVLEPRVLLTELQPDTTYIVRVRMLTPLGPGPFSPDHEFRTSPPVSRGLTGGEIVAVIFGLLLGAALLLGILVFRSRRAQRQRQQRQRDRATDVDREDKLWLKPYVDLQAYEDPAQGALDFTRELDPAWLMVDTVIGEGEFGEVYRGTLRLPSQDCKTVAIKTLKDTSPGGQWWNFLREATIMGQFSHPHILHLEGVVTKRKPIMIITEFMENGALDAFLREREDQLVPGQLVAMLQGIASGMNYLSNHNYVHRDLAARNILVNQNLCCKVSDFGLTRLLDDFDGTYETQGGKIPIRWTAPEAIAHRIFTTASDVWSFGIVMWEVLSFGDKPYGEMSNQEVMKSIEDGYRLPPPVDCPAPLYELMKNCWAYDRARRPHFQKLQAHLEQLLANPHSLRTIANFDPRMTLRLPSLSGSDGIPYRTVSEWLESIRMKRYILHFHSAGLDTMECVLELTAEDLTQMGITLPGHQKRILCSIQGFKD
Method: as §1, §2, §3

Hck(h) = target: T2, Hck(h) (Homo sapiens, UniProt P08631)
T2 construct: purchased Millipore
Method: as §1, §2, §3

LIMK1(h) = target: T3, LIMK1(h) (Homo sapiens, UniProt P53667)
T3 construct: purchased Millipore
Method: as §1, §2, §3

MARK1(h) = target: T4, MARK1(h) (Homo sapiens, UniProt Q9P0L2)
T4 construct: purchased Millipore
Method: as §1, §2, §3

PAK6(h) = PAK6(h) (Homo sapiens, UniProt Q9NQU5)
Method: as §1, §2, §3

PAR-1Bα(h) = target: T5, PAR-1Bα(h) (Homo sapiens, UniProt Q7KZI7)
T5 sequence (Q7KZI7 1-725 isoform Q7KZI7-4): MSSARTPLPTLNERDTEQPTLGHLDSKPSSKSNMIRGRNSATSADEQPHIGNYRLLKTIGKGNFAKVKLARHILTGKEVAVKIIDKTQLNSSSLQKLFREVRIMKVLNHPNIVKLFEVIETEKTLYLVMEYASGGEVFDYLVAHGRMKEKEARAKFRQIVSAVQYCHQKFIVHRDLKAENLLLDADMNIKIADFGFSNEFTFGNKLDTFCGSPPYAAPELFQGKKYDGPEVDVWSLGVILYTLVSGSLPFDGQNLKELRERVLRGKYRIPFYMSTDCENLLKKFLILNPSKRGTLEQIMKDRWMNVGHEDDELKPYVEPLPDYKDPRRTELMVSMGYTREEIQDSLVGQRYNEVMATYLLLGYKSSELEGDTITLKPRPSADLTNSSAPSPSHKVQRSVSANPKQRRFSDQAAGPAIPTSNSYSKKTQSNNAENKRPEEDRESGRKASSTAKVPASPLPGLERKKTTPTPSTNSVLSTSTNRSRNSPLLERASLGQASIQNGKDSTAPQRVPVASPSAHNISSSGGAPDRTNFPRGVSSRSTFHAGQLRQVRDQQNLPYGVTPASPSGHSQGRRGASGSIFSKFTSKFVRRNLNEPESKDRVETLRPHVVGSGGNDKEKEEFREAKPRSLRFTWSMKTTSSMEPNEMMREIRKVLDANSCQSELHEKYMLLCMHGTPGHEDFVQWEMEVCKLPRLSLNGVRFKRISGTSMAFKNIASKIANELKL
Method: as §1, §2, §3

PDGFRα(D842V)(h) = PDGFRα(D842V)(h) (Homo sapiens, UniProt P16234, D842V)
Method: as §1, §2, §3

Plk1(h) = Plk1(h) (Homo sapiens, UniProt P53350)
Method: as §1, §2, §3

Plk3(h) = Plk3(h) (Homo sapiens, UniProt Q9H4B4)
Method: as §1, §2, §3

SIK(h) = target: T6, SIK(h) (Homo sapiens, UniProt P57059)
T6 construct: purchased Millipore
Method: as §1, §2, §3

TLK2(h) = TLK2(h) (Homo sapiens, UniProt Q86UE8)
Method: as §1, §2, §3

c-RAF(h) = c-RAF(h) (Homo sapiens, UniProt P04049)
Method: as §1, §2, §3

FGFR2(N549H)(h) = FGFR2(N549H)(h) (Homo sapiens, UniProt P21802, N549H)
Method: as §1, §2, §3

Row | Compound | % activity (CDK2/cyclinE(h)) | % activity (CDK3/cyclinE(h)) | % activity (CK1γ2(h)) | % activity (CLK2(h)) | % activity (EphA1(h)) | % activity (Hck(h)) | % activity (LIMK1(h)) | % activity (MARK1(h)) | % activity (PAK6(h)) | % activity (PAR-1Bα(h)) | % activity (PDGFRα(D842V)(h)) | % activity (Plk1(h)) | % activity (Plk3(h)) | % activity (SIK(h)) | % activity (TLK2(h)) | % activity (c-RAF(h)) | % activity (FGFR2(N549H)(h))
1 | CC(C)C[C@H](NC(=O)[C@H](C)NC(=O)[C@H](CCCCN)NC(=O)[C@H](C)NC(=O)[C@H](CCCNC(=N)N)NC(=O)[C@H](C)NC(=O)[C@H](CCC(N)=O)NC(=O)[C@H](CCCNC(=N)N)NC(=O)[C@H](C)NC(=O)[C@H](C)NC(=O)[C@H](C)NC(=O)[C@H](CCCNC(=N)N)NC(=O)[C@H](C)NC(=O)[C@@H](N)Cc1ccc(O)cc1)C(=O)N[C@@H](C)C(=O)N[C@@H](CCCNC(=N)N)C(=O)N[C@@H](CCC(N)=O)C(=O)N[C@@H](CC(C)C)C(=O)NCC(=O)N[C@H](C(=O)N[C@@H](C)C(=O)N[C@@H](C)C(=O)O)C(C)C [MMI-0100] | 106% | 106% | 119% | 88% | 114% | 354% | 103% | 109% | 121% | 62% | 103% | 109% | 107% | 113% | 113% | 97% | –
2 | FAKLAARLYRKALARQLGVAA [MMI-0300] | – | – | – | 103% | – | – | – | – | 104% | 113% | 114% | 115% | – | – | 114% | 107% | 116%
3 | YARAAARQARAKALNRQLGVA (Mammal) [MMI-0200] | 112% | 104% | 104% | – | 136% | 107% | 109% | 102% | 105% | – | 107% | – | 107% | 102% | – | 115% | 104%
